# According to PubChem BioAssay AID2057 (The Scripps Research Institute Molecular Screening Center, 2009):
# The chains behind the UniProt entries cited, without tags or fusion partners.
# UniProt Q07820, whole entry: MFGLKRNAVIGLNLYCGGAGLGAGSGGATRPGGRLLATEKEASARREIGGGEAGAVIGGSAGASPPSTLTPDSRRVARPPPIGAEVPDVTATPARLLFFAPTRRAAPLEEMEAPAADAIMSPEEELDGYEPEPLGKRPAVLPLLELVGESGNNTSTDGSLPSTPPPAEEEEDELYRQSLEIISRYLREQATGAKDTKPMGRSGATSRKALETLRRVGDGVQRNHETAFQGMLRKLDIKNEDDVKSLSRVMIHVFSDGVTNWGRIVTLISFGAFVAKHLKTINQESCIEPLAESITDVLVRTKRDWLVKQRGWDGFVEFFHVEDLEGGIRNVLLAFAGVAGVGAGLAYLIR
# Only a part is listed here, and it is no random draw. The source made the active and inactive calls.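 The calls were made as follows: active = inhibition above the mean inhibition of all tested compounds plus 3 SD, set per campaign (cut at about 40% in these data); inactive = the rest.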
# Biological target: Induced myeloid leukemia cell differentiation protein Mcl-1 (Homo sapiens) (UniProt Q07820)
# Experiment: inhibitors of MCL1 binding to BIM-BH3, primary screen, biochemical, fluorescence polarization (AID 2057);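 also: 0% = DMSO wells and 100% = unlabeled Bim-BH3 peptide control; higher means more loss of mP so more displacement of Bim peptide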
# Conditions: GST-MCL1 / FITC-Bim-BH3 fluorescence polarization; at 10.9 µM; hits give high values
row,SMILES,inhibition
1,COP1(=S)c2c(C)nn(CCC#N)c2N=C(c2ccc(F)cc2)N1C (configuration not stated),inactive: 4.71%
2,CC(C)(C)C(=O)NC(Sc1ccncn1)C(Cl)(Cl)Cl (configuration not stated),inactive: 9.03%
